Experimental data published in US8859544B2, “Indolizine derivatives, process for the preparation thereof and therapeutic use thereof” (Sanofi, priority 2010, dated 2014).

Test system: inflammatory angiogenesis in mice
Test: Model of inflammatory angiogenesis in mice
Type: in vivo
Conditions: 10 or 30 mg/kg, after one week of daily treatment
Method: The model is developed on OF1 female mice (Charles River Laboratories) weighing approximately 25 g, and by groups of 12. The animals are anaesthetized with sodium pentobarbital (60 mg/kg; Sanofi Nutrition Santé animale)) intraperitoneally. An air pocket is created on the back of the mouse by subcutaneous injection of 3 ml of air. […] Seven days later, the mice are again anaesthetized and placed on a hot plate at 40° C. One ml of carmine red (Aldrich Chemicals, 5% in 10% of gelatin) is injected into the tail vein. The animals are then placed at 4° C. for 2-3 hours. The skins are then taken and dried for 24 h in an oven at 56° C. The dry tissues are weighed and placed in 1.8 ml of digestion solution (2 mM dithiothreitol, 20 mM Na2HPO4, 1 mM EDTA, 12 U/ml papain) for 24 h. The dye is then dissolved in 0.2 ml of 5M NaOH. The skins are centrifuged at 2000 rpm for 10 min at ambient temperature. The supernatants are filtered through 0.2 μm cellulose acetate membranes. The filtrates are read in a spectrophotometer at 492 nm against a carmine red calibration range. […] The results are expressed as mean values (±sem). […]
The FGF-R antagonists are evaluated between 1 and 50 mg/kg using methylcellulose/tween (0.6% v/v) as vehicle or any other vehicle which allows the active ingredient to be solubilized. […]

How did the “weight of the granuloma (dry weight of the skin)” value turn out when `COc1c(C)c(C(=O)c2ccc3[nH]c(=O)n(CC(=O)N(C)C)c(=O)c3c2)n2ccccc12` [Compound No. 35, 2-{6-[(1-Methoxy-2-methylindolizin-3-yl)carbonyl]-2,4-dioxo-1,4-dihydroquinazolin-3(2H)-yl}-N,N′-dimethylacetamide] was run?
Its value is “significantly reduce”.
